Results on one compound are retold here after ChEMBL document CHEMBL1139534, “Inhibition of herpes simplex virus thymidine kinases by 2-phenylamino-6-oxopurines and related compounds: structure-activity relationships and antiherpetic activity in vivo” (J Med Chem, 2005).

pIC50: −log10 of the molar value.

In this experiment the target is T1, Thymidine kinase (Human herpesvirus 2, UniProt Q6L709).
T1 sequence (Q6L709 whole entry): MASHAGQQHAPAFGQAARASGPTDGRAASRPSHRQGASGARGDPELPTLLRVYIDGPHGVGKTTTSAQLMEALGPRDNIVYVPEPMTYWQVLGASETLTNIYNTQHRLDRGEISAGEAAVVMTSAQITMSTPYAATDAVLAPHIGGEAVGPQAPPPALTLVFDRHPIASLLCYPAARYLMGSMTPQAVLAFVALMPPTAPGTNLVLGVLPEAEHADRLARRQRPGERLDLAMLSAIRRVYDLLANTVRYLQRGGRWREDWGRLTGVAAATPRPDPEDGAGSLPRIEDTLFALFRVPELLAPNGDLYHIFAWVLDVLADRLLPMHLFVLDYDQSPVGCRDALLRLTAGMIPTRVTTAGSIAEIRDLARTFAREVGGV
Briefly: Inhibitory concentration against herpes simplex virus type 2 thymidine kinase. Also noted: species or system Human alphaherpesvirus 2. Summed up: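 Recombinant His-tagged HSV-2 TK expressed in E. coli, Ni-NTA purified. Products captured on DEAE paper and counted by scintillation. Inhibitor diluted from DMSO stocks, at least five concentrations in duplicate; IC50 is the concentration halving activity.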

In general, pIC50 refers to the IC50 on a negative log10 scale, so that one unit is a factor of ten. With `O=c1[nH]c(Nc2ccccc2)nc2c1ncn2CCO`, the pIC50 was 5.66.
